# Measurements as given in US9062078B2, “Substituted 7-azabicyles and their use as orexin receptor modulators” (priority 2013, dated 2015).
# By UniProt entry, the sequences of proteins in these tests, tags left out.
# UniProt O43614, whole entry: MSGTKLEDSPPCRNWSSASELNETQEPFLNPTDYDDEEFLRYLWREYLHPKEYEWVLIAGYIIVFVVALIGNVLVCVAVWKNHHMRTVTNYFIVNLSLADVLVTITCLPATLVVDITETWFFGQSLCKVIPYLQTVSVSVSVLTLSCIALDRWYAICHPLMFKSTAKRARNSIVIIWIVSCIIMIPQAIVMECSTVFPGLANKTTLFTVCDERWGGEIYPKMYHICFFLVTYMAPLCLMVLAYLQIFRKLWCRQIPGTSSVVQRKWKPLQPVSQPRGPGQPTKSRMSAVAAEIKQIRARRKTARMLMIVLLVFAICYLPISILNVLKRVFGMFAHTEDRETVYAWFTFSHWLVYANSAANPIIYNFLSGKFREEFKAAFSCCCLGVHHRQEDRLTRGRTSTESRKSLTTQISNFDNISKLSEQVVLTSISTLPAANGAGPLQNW
# UniProt O43613, whole entry: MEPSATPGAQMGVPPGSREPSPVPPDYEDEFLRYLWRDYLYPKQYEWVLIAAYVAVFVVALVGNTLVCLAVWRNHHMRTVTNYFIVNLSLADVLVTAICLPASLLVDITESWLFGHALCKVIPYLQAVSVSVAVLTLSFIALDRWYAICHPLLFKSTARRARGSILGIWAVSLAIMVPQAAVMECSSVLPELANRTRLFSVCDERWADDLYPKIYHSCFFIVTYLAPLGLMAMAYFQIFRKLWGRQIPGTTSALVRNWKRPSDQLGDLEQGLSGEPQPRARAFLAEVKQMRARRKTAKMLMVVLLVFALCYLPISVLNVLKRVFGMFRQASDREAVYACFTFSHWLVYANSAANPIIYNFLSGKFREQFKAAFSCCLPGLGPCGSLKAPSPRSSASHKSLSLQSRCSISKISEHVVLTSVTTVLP
# Columns and labels:
# [1] = target: rat orexin 1 receptor (Rattus norvegicus, UniProt P56718); assay: Rat orexin 1 receptor radioligand binding (competitive, [3H]-SB674042, HEK293 cell preparations)
# [2] = target: human orexin 2 receptor (Homo sapiens (Human), UniProt O43614); assay: Human orexin 2 receptor radioligand binding (competitive, [3H]-EMPA, HEK293 cell preparations); settings: hOX2 Ki (nm)
# [3] = target: human orexin 1 receptor (Homo sapiens (Human), UniProt O43613); assay: Human orexin 1 receptor radioligand binding (competitive, [3H]-SB674042, CHO cell preparations); settings: hOX1 Ki (nm)
SMILES,Ki ([1]; rOX1 Ki (nm)),Ki [2],further results
"O=C(c1ccccc1-n1nccn1)N1C2CCC1C(Nc1cc(C(F)(F)F)ccn1)C2 (single isomer, unassigned) [Example 210, (±)-((2-(2H-1,2,3-triazol-2-yl)phenyl)(2-(4-(trifluoromethyl)pyridin-2-yl)amino)-7-azabicyclo[2.2.1]heptan-7-yl)methanone]",211 nM,128 nM,
"CCOc1ncc2ccccc2c1C(=O)N1C2CCC1C(COc1ccccn1)C2 (racemic) [Example 83, (±)-(3-ethoxyisoquinolin-4-yl)(2-((pyridin-2-yloxy)methyl)-7-azabicyclo[2.2.1]heptan-7-yl)methanone]",,271 nM,
"Cc1ccc(-n2nccn2)c(C(=O)N2[C@@H]3CC[C@H]2[C@H](COc2ccc(F)cn2)C3)n1 [Example 8A, ((1S,2R,4R)-2-(((5-fluoropyridin-2-yl)oxy)methyl)-7-azabicyclo[2.2.1]heptan-7-yl)(6-methyl-3-(2H-1,2,3-triazol-2-yl)pyridin-2-yl)methanone]",,,Ki [3]: 14 nM
"O=C(c1ccccc1-n1nccn1)N1C2CCC1C(Nc1cc(C(F)(F)F)ccn1)C2 (single isomer, unassigned) [Example 235, (±)-((2-(2H-1,2,3-triazol-2-yl)phenyl)(2-((4-(trifluoromethyl)pyridin-2-yl)amino)-7-azabicyclo[2.2.1]heptan-7-yl)methanone]",> 10000 nM,> 10000 nM,
"COc1c(F)cccc1C(=O)N1C2CCC1C(COc1ccc(F)cn1)C2 (racemic) [Example 107, (±)-((3-fluoro-2-methoxyphenyl)(2-(((5-fluoropyridin-2-yl)oxy)methyl)-7-azabicyclo[2.2.1]heptan-7-yl)methanone]",,,"Ki ([1]; rat orexin 1 receptor, [3H]-SB674042 competition binding, read-out: rOX1 Ki (nm)): 440 nM"
"O=C(c1ccccc1-n1nccn1)N1C2CCC1C(Nc1ncc(C(F)(F)F)cn1)C2 (racemic) [Example 221, (±)-(2-(2H-1,2,3-triazol-2-yl)phenyl)(2-(5-(trifluoromethyl)pyrimidin-2-yl)amino)-7-azabicyclo[2.2.1]heptan-7-yl)methanone]",,3300 nM,
"O=C(c1ccccc1-n1nccn1)N1C2CCC1C(Nc1cnc(C(F)(F)F)cn1)C2 (racemic) [Example 182, (±)-((2-(2H-1,2,3-triazol-2-yl)phenyl)(2-((5-(trifluoromethyl)pyrazin-2-yl)amino)-7-azabicyclo[2.2.1]heptan-7-yl)methanone]",47 nM,,

# Like-named read-outs stand apart in the source and are kept apart here.
